Test results taken from patent US8633206B2, “Pyrrolo[2,3-D]pyrimidine compounds” (Pfizer Inc., priority 2009, dated 2014).

Chains of the proteins cited; added tags and fusions are not shown. Lines headed by an entry give the natural chain unless they say otherwise; changes in a name come on top. Residues count along the entry.
UniProt P52333, 781-1124: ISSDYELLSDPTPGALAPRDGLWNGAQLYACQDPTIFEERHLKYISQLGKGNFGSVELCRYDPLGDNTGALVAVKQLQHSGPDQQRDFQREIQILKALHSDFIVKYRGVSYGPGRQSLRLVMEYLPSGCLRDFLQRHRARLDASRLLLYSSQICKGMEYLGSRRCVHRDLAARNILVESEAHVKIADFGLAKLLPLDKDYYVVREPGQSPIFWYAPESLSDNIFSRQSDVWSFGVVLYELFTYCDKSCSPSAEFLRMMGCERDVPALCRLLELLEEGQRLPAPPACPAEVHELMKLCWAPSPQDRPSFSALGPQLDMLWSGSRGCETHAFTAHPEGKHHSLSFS
UniProt O60674, 808-1132: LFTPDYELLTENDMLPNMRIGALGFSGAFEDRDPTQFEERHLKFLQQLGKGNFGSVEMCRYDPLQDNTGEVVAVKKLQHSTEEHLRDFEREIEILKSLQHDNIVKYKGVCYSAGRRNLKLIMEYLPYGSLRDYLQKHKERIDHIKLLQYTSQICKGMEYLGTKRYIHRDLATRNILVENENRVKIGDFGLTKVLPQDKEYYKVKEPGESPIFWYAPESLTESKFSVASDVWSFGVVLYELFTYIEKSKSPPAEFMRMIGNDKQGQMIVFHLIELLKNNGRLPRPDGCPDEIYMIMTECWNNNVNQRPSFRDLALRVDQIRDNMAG
UniProt P23458: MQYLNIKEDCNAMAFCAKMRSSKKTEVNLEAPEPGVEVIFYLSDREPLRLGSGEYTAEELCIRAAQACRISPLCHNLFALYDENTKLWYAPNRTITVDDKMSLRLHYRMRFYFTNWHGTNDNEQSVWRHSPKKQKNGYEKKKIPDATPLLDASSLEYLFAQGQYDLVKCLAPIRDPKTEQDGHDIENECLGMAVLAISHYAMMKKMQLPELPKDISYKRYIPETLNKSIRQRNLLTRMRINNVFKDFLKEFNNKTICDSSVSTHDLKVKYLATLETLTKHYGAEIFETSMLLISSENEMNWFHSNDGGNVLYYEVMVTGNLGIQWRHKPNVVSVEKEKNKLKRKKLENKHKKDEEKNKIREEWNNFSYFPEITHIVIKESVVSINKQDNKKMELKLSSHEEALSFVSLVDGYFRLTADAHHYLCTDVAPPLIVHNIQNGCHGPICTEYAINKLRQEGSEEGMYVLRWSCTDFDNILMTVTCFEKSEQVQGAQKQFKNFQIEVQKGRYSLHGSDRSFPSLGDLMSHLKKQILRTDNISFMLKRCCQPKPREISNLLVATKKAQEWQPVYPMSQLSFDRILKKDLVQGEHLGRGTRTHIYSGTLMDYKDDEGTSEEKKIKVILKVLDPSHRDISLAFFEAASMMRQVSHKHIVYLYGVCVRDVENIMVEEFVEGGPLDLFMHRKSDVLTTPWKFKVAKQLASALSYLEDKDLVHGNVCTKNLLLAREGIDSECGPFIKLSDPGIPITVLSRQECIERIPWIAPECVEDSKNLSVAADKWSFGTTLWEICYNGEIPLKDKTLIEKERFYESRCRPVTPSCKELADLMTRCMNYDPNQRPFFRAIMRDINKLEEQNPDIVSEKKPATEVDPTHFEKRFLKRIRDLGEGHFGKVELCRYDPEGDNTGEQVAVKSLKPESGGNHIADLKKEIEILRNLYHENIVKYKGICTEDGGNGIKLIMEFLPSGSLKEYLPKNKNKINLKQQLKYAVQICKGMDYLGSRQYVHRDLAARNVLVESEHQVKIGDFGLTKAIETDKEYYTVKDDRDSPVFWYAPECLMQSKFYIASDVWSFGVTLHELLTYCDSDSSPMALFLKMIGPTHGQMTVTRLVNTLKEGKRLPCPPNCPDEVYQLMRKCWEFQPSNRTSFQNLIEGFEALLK

How the values were obtained:
Type in all cases: biochemical
JAK3 = JAK3 (Homo sapiens (Human), UniProt P52333); assay: JAK enzymatic assay (peptide mobility shift), JAK3; settings: recombinant JAK3 1 nM, JAKtide peptide, 90 minutes
Experimental: (§1) Recombinant JAK1 (Catalog Number PV4775), JAK2 (Catalog Number PV4210) and JAK3 (Catalog Number PV3855) were purchased from (Invitrogen Corporation, Madison, Wis.). […] Adenosine 5′-triphosphate (ATP) was obtained from (Sigma Chemical Company, St. Louis, Mo.). […] Coating Reagent 3 was purchased from (Caliper Life Sciences, Hopkinton, Mass.).
(§2) Compounds were diluted serially in 100% dimethyl sulfoxide and tested in an 11 point dose response in duplicate or quadruplicate (200 nl of compound/DMSO was added per 10 L reaction). […] The assay was run for 240 minutes for JAK1, 150 minutes for JAK2, 90 minutes for JAK3 and 70 minutes for Tyk2. […] The plates were placed on a LabChip 3000 (LC3000) instrument from (Caliper Life Sciences) to measure the formation of phosphorylated peptide. Data was analyzed using Hits Well Analyzer Software from (Caliper Life Sciences) to obtain the amount of product formed.
(§3) Data was then imported into an internal application where each data point is expressed as % inhibition based on uninhibited and no enzyme controls. Dose-response data is then fit using a 4 parameter logistic equation (Equation 1) to determine an IC50.

JAK2 = JAK2 (Homo sapiens (Human), UniProt O60674); assay: JAK enzymatic assay (peptide mobility shift), JAK2; settings: recombinant JAK2 2 nM, JAKtide peptide, 150 minutes
Excerpt: Recombinant JAK1 (Catalog Number PV4775), JAK2 (Catalog Number PV4210) and JAK3 (Catalog Number PV3855) were purchased from (Invitrogen Corporation, Madison, Wis.). Tyk2 (His-Tyk2 (888-1182, C936S, C1142S)) used in this study was expressed and purified at Pfizer Laboratories. Adenosine 5′-triphosphate (ATP) was obtained from (Sigma Chemical Company, St. Louis, Mo.). […] Coating Reagent 3 was purchased from (Caliper Life Sciences, Hopkinton, Mass.).
A peptide mobility shift assay was used to quantify the phosphorylation of the JAKtide (JAK2 and JAK3) or the IRS-1 peptide (JAK1 and Tyk2). Reactions were carried out in a 384-well plate (Matrical MP-101) in a 10 L total volume. […] Compounds were diluted serially in 100% dimethyl sulfoxide and tested in an 11 point dose response in duplicate or quadruplicate (200 nl of compound/DMSO was added per 10 L reaction). The reactions were initiated by the addition of enzyme to the final concentration of 2 nM JAK2, 1 nM JAK3, 12 nM Tyk2 or 20 nM JAK1. The assay was run for 240 minutes for JAK1, 150 minutes for JAK2, 90 minutes for JAK3 and 70 minutes for Tyk2. […] Data was analyzed using Hits Well Analyzer Software from (Caliper Life Sciences) to obtain the amount of product formed.
Data was then imported into an internal application where each data point is expressed as % inhibition based on uninhibited and no enzyme controls. […]

JAK1 = JAK1 (Homo sapiens (Human), UniProt P23458); assay: JAK enzymatic assay (peptide mobility shift), JAK1; settings: recombinant JAK1 20 nM, IRS-1 peptide, 240 minutes
Experimental: as §1, §2, §3

| Structure (SMILES) | IC50 (JAK3) | IC50 (JAK2) | IC50 (JAK1) |
| --- | --- | --- | --- |
| CN(c1ncnc2[nH]ccc12)[C@H]1CC[C@H](CS(=O)(=O)N2CC[C@@H](O)C2)CC1 [Example 1] | 163 nM |  |  |
| CN(c1ncnc2[nH]ccc12)[C@H]1CC[C@H](CS(=O)(=O)N2CCC(CO)CC2)CC1 [Example 2, (1-((Trans-4-(methyl(7H-pyrrolo[2,3-d]pyrimidin-4-yl)amino)cyclohexyl)-methylsulfonyl)piperidin-4-yl)methanol] |  | 43.8 nM |  |
| CCN[C@@H](C)[C@@H]1CCN(S(=O)(=O)C[C@H]2CC[C@H](N(C)c3ncnc4[nH]ccc34)CC2)C1 [Example 27, N-{trans-4-[({(3R)-3-[(1S)-1-(ethylamino)-ethyl]pyrrolidin-1-yl}-sulfonyl)methyl]cyclohexyl}-N-methyl-7H-pyrrolo[2,3-d]pyrimidin-4-amine] | 1190 nM | 62.5 nM | 11.1 nM |
